Experimental data reported in PubChem BioAssay AID2174 (The Scripps Research Institute Molecular Screening Center, 2009).
The entries are a selection whose mix differs from that of the whole data set. Active and inactive are the calls of the source.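 The calls were made as follows: active = inhibition above the mean of all tested compounds plus 3 SD, set per campaign (cut at about 14% in these data); inactive = the rest.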

Chains of the proteins cited; added tags and fusions are not shown. Lines headed by an entry give the natural chain unless they say otherwise; changes in a name come on top.
UniProt O75608: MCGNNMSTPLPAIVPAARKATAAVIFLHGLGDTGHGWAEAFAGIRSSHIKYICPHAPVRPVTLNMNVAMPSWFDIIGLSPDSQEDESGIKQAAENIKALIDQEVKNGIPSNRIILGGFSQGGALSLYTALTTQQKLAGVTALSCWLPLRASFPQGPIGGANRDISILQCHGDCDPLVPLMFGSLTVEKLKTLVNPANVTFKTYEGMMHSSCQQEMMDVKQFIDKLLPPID

These compounds were tested against Acyl-protein thioesterase 1 (Homo sapiens) (UniProt O75608) (assay: LYPLA1 inhibitors, primary screen, counter-screen for PME1 inhibitor project, biochemical, fluorescence polarization, FP-Rh probe ABPP (AID 2174;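 also: inhibitors block serine hydrolase probe labeling of LYPLA1 so polarization falls; 0% = enzyme with DMSO and 100% = wells lacking LYPLA1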)). Settings: recombinant LYPLA1, FP-Rh probe fluorescence polarization; at 5.9 µM; stronger effect = higher value.

Compound	inhibition
Cc1ccc(NCCc2c([N+](=O)[O-])cc([N+](=O)[O-])cc2[N+](=O)[O-])cc1	inactive: -4.1%
CC(C)(C)C(=O)NC(Sc1ncccn1)C(Cl)(Cl)Cl (stereo unspecified)	inactive: 2.71%
Clc1n[nH]nc1-c1nn[nH][15n]1	inactive: -5.98%
CCOP(=O)(Nc1ccc(C)cn1)OCC	inactive: -0.19%
CN(CCCl)Cc1cc(Cl)c(NC2=NCCN2)c(Cl)c1	inactive: -2.41%
CCOP(=O)(NC(=NC(C)c1ccccc1)NC(C)c1ccccc1)OCC (stereo unspecified)	inactive: -2.04%
CCC1=CC2Cc3nc4ccc(Cl)cc4c(N)c3C(C1)C2 (stereo unspecified)	inactive: 0.67%
O=P1(Nc2ccccn2)COc2ccccc2OC1	inactive: -2.29%
CC1(CBr)Cn2c(nc3ccccc3c2=O)S1 (stereo unspecified)	inactive: 0.95%
O=[As](O)(c1ccccc1Br)c1ccccc1Br	inactive: 0.24%
CN(C(=O)Cc1ccc(Cl)c(Cl)c1)[C@@H]1CCCC[C@H]1N1CCCC1	inactive: 1.8%
CC(C)/C=N\N=C(\N)N[N+](=O)[O-]	inactive: 1.48%
COc1ccccc1CNC(=O)COC(=O)C(O)(c1ccccc1)c1ccccc1	inactive: -0.22%
O=C(/C=C/c1ccccc1)OC1CN2CCC1CC2 (stereo unspecified)	inactive: 1.47%
CN(C)C1(CNC(=O)c2ccc(S(C)(=O)=O)cc2)CCCCC1	inactive: -1.44%
Cc1ccc(C(=O)OC2CN3CCC2CC3)cc1 (stereo unspecified)	inactive: -1.54%
CC1CCC(C(C)C)C(OP(=O)(Nc2ccccn2)c2ccccc2)C1 (stereo unspecified)	inactive: 1.65%
Cc1nn(-c2ccccc2)c2c1P(=O)(N1CCOCC1)N(C)C(c1ccccc1)=N2 (stereo unspecified)	inactive: 1.32%
O=[As](O)(c1cccs1)c1cccs1	inactive: -1.1%
Cc1ccc(OCC(=O)OC2CN3CCC2CC3)cc1 (stereo unspecified)	inactive: -0.38%
NS(=O)(=O)c1cccc(NC(=O)COC(=O)C(O)(c2ccccc2)c2ccccc2)c1	inactive: -2.86%
O=P1(Nc2ccc(Br)cn2)COc2ccccc2OC1	inactive: -1.34%
Nc1cccc([As](=O)(O)c2ccccc2)c1	inactive: 1.14%
O=P1(Nc2ncccn2)COc2ccccc2OC1	inactive: -2.16%
C[C@H]1OP(=O)(Oc2ccccc2)[C@H](O)[C@H](O)[C@H]1N=[N+]=[N-] (stereo partly specified)	inactive: -1.81%
O=P(Nc1nc2ccccc2s1)(c1ccccc1)c1ccccc1	inactive: 1.39%

Compound	inhibition
CN(C)C1(CNC(=O)c2ccc(Cl)c(S(N)(=O)=O)c2)CCCCC1	inactive: 3.48%
O=P(Nc1ccccn1)(c1ccc(Br)cc1)c1ccc(Br)cc1	inactive: -2.02%
C(Cc1nn[nH]n1)Cc1nn[nH]n1	inactive: 0.93%
Nc1ccc([As](=O)(O)c2ccc([N+](=O)[O-])cc2)cc1	inactive: -0.8%
O=C(OC1CN2CCC1CC2)c1cccc(Cl)c1 (stereo unspecified)	inactive: -2.04%
O=[N+]([O-])c1ncn(CCn2cnc([N+](=O)[O-])n2)n1	inactive: 2.15%
CC(=O)NC(SC(=S)N(C)C)C(Cl)(Cl)Cl (stereo unspecified)	inactive: 1.47%
O=[N+]([O-])c1ccc(O)c(/C=N/Nc2ccc([N+](=O)[O-])cc2[N+](=O)[O-])c1	inactive: 1%
O=[As](O)(c1ccccc1)c1ccc(O)cc1	inactive: -4.85%
c1nnnn1CCn1cnnn1	inactive: -1.72%
O=P(Nc1nccs1)(c1ccccc1)c1ccccc1	inactive: 1.81%
CC(C)C(=O)NC(Sc1ccccc1)C(Cl)(Cl)Cl (stereo unspecified)	inactive: 0.21%
CC(C)(C)C(=O)NC(Sc1ccccc1)C(Cl)(Cl)Cl (stereo unspecified)	inactive: 5.76%
CCOc1ccc(C2=NCC(CBr)S2)cc1 (stereo unspecified)	inactive: -0.05%
O=P1(Nc2nc3ccc(Cl)cc3s2)COc2ccccc2O1 (stereo unspecified)	inactive: -0.76%
CC(=O)Nc1ccc(Oc2c([N+](=O)[O-])cc([N+](=O)[O-])cc2[N+](=O)[O-])cc1	inactive: 2.89%
CC(=O)Nc1ccc([As](=O)(O)O)c(O)c1	inactive: 1.14%
CC(=O)c1ccc(N2CC2c2ccncc2)cc1 (stereo unspecified)	inactive: 0.98%
C[C@H]1OP(=O)(Oc2ccccc2)C[C@@H]2O[C@@H]21 (stereo partly specified)	inactive: -1.51%
C[C@@H]1C=CCP(=O)(Oc2ccccc2)O1 (stereo partly specified)	inactive: 0.86%
Cc1ccccc1CN(C)C(=O)COC(=O)C(O)(c1ccccc1)c1ccccc1	inactive: 1.4%
O=C(NC1CCS(=O)(=O)C1)NP(=S)(Oc1ccccc1)Oc1ccccc1 (stereo unspecified)	inactive: -0.69%
CCNC(=S)/N=C(\N)N[N+](=O)[O-]	inactive: -3.85%
CCOC(=O)NC(Sc1ccccc1)C(Cl)(Cl)Cl (stereo unspecified)	inactive: 3.62%
Cc1ccc(NP(=O)(Oc2cccc(C)c2)Oc2cccc(C)c2)nc1	inactive: -0.66%
